pKd: −log10 of the molar value.
Target: baboon albumin (baboon)
Experiment: SPR (BIAcore)

pKd: 7.44
Substance: humanized anti-human serum albumin Nanobody ALB-8 (VHH)

Reference: US20070269422A1
